Permeability data for macrocyclic peptides

Data: CycPeptMPDB; original report Kelly et al. 2021, doi:10.1021/jacs.0c06115.

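Lipid, pH, incubation time, direction and concentration are not recorded in the data file. Other peptides of the study may be missing here. Entries at the database's floor value (log10 P of -10) are not listed.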

PAMPA measures passive passage through an artificial lipid membrane.
Permeability is in 10^-6 cm/s, converted from the database's log10 values; higher is more permeable.

{"smiles": "CC(=O)N1CCC[C@@H]1C(=O)N(C)[C@H](CC(C)C)C(=O)N[C@@H]1C(=O)N[C@H](CC(C)C)C(=O)N[C@@H](CC(C)C)C(=O)N(C)[C@H](CC(C)C)C(=O)N(C)[C@@H](C)C(=O)N[C@H](CC(C)C)C(=O)N2CCC[C@H]2C(=O)O[C@@H]1C", "PAMPA (10^-6 cm/s)": "5"}
{"smiles": "CC(=O)N1CCC[C@@H]1C(=O)N(C)[C@H](CC(C)C)C(=O)N[C@@H]1C(=O)N[C@H](CC(C)C)C(=O)N(C)[C@@H](CC(C)C)C(=O)N[C@H](CC(C)C)C(=O)N(C)[C@H](C)C(=O)N[C@@H](CC(C)C)C(=O)N2CCC[C@H]2C(=O)O[C@@H]1C", "PAMPA (10^-6 cm/s)": "2.1"}
{"smiles": "CC(=O)N1CCC[C@H]1C(=O)N(C)[C@@H](CC(C)C)C(=O)N[C@@H]1C(=O)N[C@H](CC(C)C)C(=O)N[C@H](CC(C)C)C(=O)N[C@H](CC(C)C)C(=O)N[C@@H](C)C(=O)N[C@H](CC(C)C)C(=O)N2CCC[C@@H]2C(=O)O[C@@H]1C", "PAMPA (10^-6 cm/s)": "0.001"}
{"smiles": "CC(=O)N[C@@H]1C(=O)N2CCC[C@H]2C(=O)N(C)[C@H](CC(C)C)C(=O)N(C)[C@H](CC(C)C)C(=O)N(C)[C@H](CC(C)C)C(=O)N(C)[C@H](CC(C)C)C(=O)N(C)[C@@H](C)C(=O)N[C@@H](CC(C)C)C(=O)N2CCC[C@@H]2C(=O)O[C@@H]1C", "PAMPA (10^-6 cm/s)": "4"}
{"smiles": "CC(=O)N1CCC[C@H]1C(=O)N(C)[C@@H](CC(C)C)C(=O)N[C@@H]1C(=O)N[C@H](CC(C)C)C(=O)N(C)[C@@H](CC(C)C)C(=O)N(C)[C@@H](CC(C)C)C(=O)N[C@@H](C)C(=O)N[C@H](CC(C)C)C(=O)N2CCC[C@@H]2C(=O)O[C@@H]1C", "PAMPA (10^-6 cm/s)": "0.78"}
{"smiles": "CC(=O)N1CCC[C@H]1C(=O)N(C)[C@@H](CC(C)C)C(=O)N[C@@H]1C(=O)N(C)[C@@H](CC(C)C)C(=O)N[C@@H](CC(C)C)C(=O)N(C)[C@@H](CC(C)C)C(=O)N(C)[C@@H](C)C(=O)N[C@@H](CC(C)C)C(=O)N2CCC[C@H]2C(=O)O[C@@H]1C", "PAMPA (10^-6 cm/s)": "3.8"}
{"smiles": "CC(=O)N1CCC[C@H]1C(=O)N[C@@H]1C(=O)N[C@H](CC(C)C)C(=O)N(C)[C@H](CC(C)C)C(=O)N(C)[C@H](CC(C)C)C(=O)N[C@H](CC(C)C)C(=O)N(C)[C@H](C)C(=O)N[C@@H](CC(C)C)C(=O)N2CCC[C@@H]2C(=O)O[C@@H]1C", "PAMPA (10^-6 cm/s)": "10"}
{"smiles": "CC(=O)N1CCC[C@H]1C(=O)N[C@@H]1C(=O)N(C)[C@H](CC(C)C)C(=O)N[C@H](CC(C)C)C(=O)N[C@@H](CC(C)C)C(=O)N[C@@H](CC(C)C)C(=O)N[C@@H](C)C(=O)N[C@@H](CC(C)C)C(=O)N2CCC[C@@H]2C(=O)O[C@@H]1C", "PAMPA (10^-6 cm/s)": "0.27"}
{"smiles": "CC(=O)N1CCC[C@@H]1C(=O)N(C)[C@@H](CC(C)C)C(=O)N[C@@H]1C(=O)N(C)[C@@H](CC(C)C)C(=O)N[C@@H](CC(C)C)C(=O)N[C@H](CC(C)C)C(=O)N(C)[C@@H](C)C(=O)N[C@@H](CC(C)C)C(=O)N2CCC[C@H]2C(=O)O[C@@H]1C", "PAMPA (10^-6 cm/s)": "3.9"}
{"smiles": "CC(=O)N1CCC[C@@H]1C(=O)N(C)[C@@H](CC(C)C)C(=O)N[C@@H]1C(=O)N(C)[C@@H](CC(C)C)C(=O)N(C)[C@@H](CC(C)C)C(=O)N(C)[C@H](CC(C)C)C(=O)N(C)[C@H](C)C(=O)N[C@@H](CC(C)C)C(=O)N2CCC[C@@H]2C(=O)O[C@@H]1C", "PAMPA (10^-6 cm/s)": "8.9"}
{"smiles": "CC(=O)N1CCC[C@H]1C(=O)N[C@@H]1C(=O)N[C@H](CC(C)C)C(=O)N[C@H](CC(C)C)C(=O)N(C)[C@H](CC(C)C)C(=O)N(C)[C@H](CC(C)C)C(=O)N(C)[C@H](C)C(=O)N[C@@H](CC(C)C)C(=O)N2CCC[C@@H]2C(=O)O[C@@H]1C", "PAMPA (10^-6 cm/s)": "23"}
{"smiles": "CC(=O)N1CCC[C@H]1C(=O)N(C)[C@H](CC(C)C)C(=O)N[C@@H]1C(=O)N(C)[C@H](CC(C)C)C(=O)N[C@@H](CC(C)C)C(=O)N(C)[C@H](CC(C)C)C(=O)N(C)[C@H](C)C(=O)N[C@@H](CC(C)C)C(=O)N2CCC[C@H]2C(=O)O[C@@H]1C", "PAMPA (10^-6 cm/s)": "6.8"}
{"smiles": "CC(=O)N1CCC[C@@H]1C(=O)N(C)[C@H](CC(C)C)C(=O)N[C@@H]1C(=O)N[C@H](CC(C)C)C(=O)N[C@H](CC(C)C)C(=O)N[C@H](CC(C)C)C(=O)N(C)[C@H](C)C(=O)N[C@H](CC(C)C)C(=O)N2CCC[C@@H]2C(=O)O[C@@H]1C", "PAMPA (10^-6 cm/s)": "0.22"}
{"smiles": "CC(=O)N1CCC[C@@H]1C(=O)N(C)[C@@H](CC(C)C)C(=O)N[C@@H]1C(=O)N[C@@H](CC(C)C)C(=O)N[C@H](CC(C)C)C(=O)N(C)[C@@H](CC(C)C)C(=O)N[C@@H](C)C(=O)N[C@@H](CC(C)C)C(=O)N2CCC[C@@H]2C(=O)O[C@@H]1C", "PAMPA (10^-6 cm/s)": "1.4"}
{"smiles": "CC(=O)N1CCC[C@H]1C(=O)N[C@@H]1C(=O)N[C@H](CC(C)C)C(=O)N[C@@H](CC(C)C)C(=O)N(C)[C@@H](CC(C)C)C(=O)N[C@@H](CC(C)C)C(=O)N(C)[C@@H](C)C(=O)N[C@@H](CC(C)C)C(=O)N2CCC[C@@H]2C(=O)O[C@@H]1C", "PAMPA (10^-6 cm/s)": "7.2"}
{"smiles": "CC(=O)N1CCC[C@H]1C(=O)N(C)[C@H](CC(C)C)C(=O)N[C@@H]1C(=O)N[C@H](CC(C)C)C(=O)N(C)[C@H](CC(C)C)C(=O)N(C)[C@H](CC(C)C)C(=O)N[C@@H](C)C(=O)N[C@@H](CC(C)C)C(=O)N2CCC[C@H]2C(=O)O[C@@H]1C", "PAMPA (10^-6 cm/s)": "0.42"}
{"smiles": "CC(=O)N1CCC[C@H]1C(=O)N(C)[C@@H](CC(C)C)C(=O)N[C@@H]1C(=O)N[C@H](CC(C)C)C(=O)N(C)[C@@H](CC(C)C)C(=O)N[C@@H](CC(C)C)C(=O)N(C)[C@@H](C)C(=O)N[C@@H](CC(C)C)C(=O)N2CCC[C@@H]2C(=O)O[C@@H]1C", "PAMPA (10^-6 cm/s)": "2.5"}
{"smiles": "CC(=O)N1CCC[C@H]1C(=O)N(C)[C@H](CC(C)C)C(=O)N[C@@H]1C(=O)N(C)[C@@H](CC(C)C)C(=O)N(C)[C@H](CC(C)C)C(=O)N(C)[C@@H](CC(C)C)C(=O)N(C)[C@H](C)C(=O)N[C@H](CC(C)C)C(=O)N2CCC[C@H]2C(=O)O[C@@H]1C", "PAMPA (10^-6 cm/s)": "4.6"}
{"smiles": "CC(=O)N1CCC[C@H]1C(=O)N(C)[C@H](CC(C)C)C(=O)N[C@@H]1C(=O)N[C@@H](CC(C)C)C(=O)N[C@H](CC(C)C)C(=O)N(C)[C@H](CC(C)C)C(=O)N[C@H](C)C(=O)N[C@@H](CC(C)C)C(=O)N2CCC[C@H]2C(=O)O[C@@H]1C", "PAMPA (10^-6 cm/s)": "0.37"}
{"smiles": "CC(=O)N1CCC[C@H]1C(=O)N[C@@H]1C(=O)N[C@H](CC(C)C)C(=O)N(C)[C@H](CC(C)C)C(=O)N(C)[C@H](CC(C)C)C(=O)N(C)[C@H](CC(C)C)C(=O)N[C@H](C)C(=O)N[C@@H](CC(C)C)C(=O)N2CCC[C@@H]2C(=O)O[C@@H]1C", "PAMPA (10^-6 cm/s)": "4.4"}

Excerpt, the opening 2 entries:

{"smiles": "CC(=O)N1CCC[C@@H]1C(=O)N(C)[C@H](CC(C)C)C(=O)N[C@@H]1C(=O)N[C@H](CC(C)C)C(=O)N[C@@H](CC(C)C)C(=O)N(C)[C@H](CC(C)C)C(=O)N(C)[C@@H](C)C(=O)N[C@H](CC(C)C)C(=O)N2CCC[C@H]2C(=O)O[C@@H]1C", "PAMPA (10^-6 cm/s)": "5"}
{"smiles": "CC(=O)N1CCC[C@@H]1C(=O)N(C)[C@H](CC(C)C)C(=O)N[C@@H]1C(=O)N[C@H](CC(C)C)C(=O)N(C)[C@@H](CC(C)C)C(=O)N[C@H](CC(C)C)C(=O)N(C)[C@H](C)C(=O)N[C@@H](CC(C)C)C(=O)N2CCC[C@H]2C(=O)O[C@@H]1C", "PAMPA (10^-6 cm/s)": "2.1"}